# Test results: patent US7700775B2, “Compounds and compositions for delivering active agents” (Emisphere Technologies, Inc., priority 2001, dated 2010)
# Experiment: Insulin - Oral Delivery (serum human insulin by ELISA after oral dosing of delivery agent compound + human zinc insulin)
# Conditions: human insulin alone (no delivery agent), previous experiments
# Description: Oral dosing (PO) compositions of delivery agent compound and human zinc insulin (minimum 26 IU/mg available from Calbiochem—Novabiochem Corp, La Jolla, Calif.) were prepared in deionized water. […] The solution was vortexed, then heated (about 37° C.) and sonicated. The pH was adjusted to about 7 to 8.5 with NaOH or HCl. […] About 1.25 mg insulin from an insulin stock solution (15 mg/ml made from 0.5409 g insulin and 18 ml deionized water, adjusting with HCl and NaOH to pH 8.15 and to obtain a clear solution using 40 ml concentrated HCl, 25 ml 10N NaOH and 50 ml 1N NaOH) was added to the solution and mixed by inverting. […] The final delivery agent compound dose, insulin dose and dose volume amounts are listed below in Table 1.
# The typical dosing and sampling protocols were as follows. […] A dosing group of five animals was administered one of the dosing solutions. […] The dosing solution was administered by pressing the syringe plunger.
# Serum insulin levels were determined with an Insulin ELISA Test Kit (Kit # DSL-10-1600 from Diagnostic Systems Laboratories, Inc., Webster, Tex.), modifying the standard protocol in order to optimize the sensitivity and linear range of the standard curve for the volumes and concentrations of the samples used in the present protocol. […] The five values for each time point were averaged and the results plotted as serum insulin concentration versus time.
substance,measurement,value
human insulin,serum human insulin following oral dosing with human insulin alone,no measurable levels
